Experimental data published in ChEMBL document CHEMBL3243935, “Analgesic and tranquilizing activity of 5,8-disubstituted 2-aminomethyl-3,4-dihydronaphthalenes” (J Med Chem, 1978).

What was measured:
Mus musculus [1] = assay: Analgesic activity in Swiss CD mouse assessed as elevation of response latency at 100 mg/kg, ip measured 2 hrs post treatment by tail flick method relative to control; details: route intraperitoneal, strain Swiss CD
Mus musculus [2] = assay: Analgesic activity in Swiss CD mouse at 100 mg/kg, ip measured 2 hrs post treatment by hot-plate method relative to control; details: route intraperitoneal
Mus musculus [3] = assay: Analgesic activity in Swiss CD mouse at 100 mg/kg, ip measured 0.5 hr post treatment by hot-plate method relative to control; details: route intraperitoneal
Mus musculus [4] = assay: Analgesic activity in Swiss CD mouse assessed as elevation of response latency at 100 mg/kg, ip measured 0.5 hr post treatment by tail flick method relative to control; details: route intraperitoneal, strain Swiss CD

Which Activity (Mus musculus [1]) does the source give for `COc1ccc(Cl)c2c1CCC(CN1CCC3(CC1)C(=O)NCN3c1ccccc1)=C2` here?
Its Activity is 103%.

What about the Activity (Mus musculus [2]) of the same compound?
Its Activity is 167%.

And the Activity (Mus musculus [3])?
Its Activity is 181%.

And the Activity (Mus musculus [4])?
Its Activity is 97%.
